Experimental data published in paper PMC12763877, “Novel APLNR antagonist candesartan induces tumor vascular normalization through ROS/cGAS/STING axis and augmented sunitinib response in breast cancer” (Journal of Experimental & Clinical Cancer Research : CR, 2025).

Tested on: 4T1 cells (orthotopic breast cancer)
Experiment: Anti-tumor efficacy in breast cancer mouse model, alone or with Sunitinib
Format: in vivo, BALB/c mice
Settings: candesartan 10 mg/kg once daily, Sunitinib 40 mg/kg every two days, intragastric, 14 days; vs vehicle

Question: For `CCN(CC)CCNC(=O)c1c(C)[nH]c(/C=C2\C(=O)Nc3ccc(F)cc32)c1C` [Sunitinib], which Tumor growth is on record?
Answer: The Tumor growth was “significantly reduce the tumor growth”.
